Laboratory results published in patent publication US20100248265A1, “COMPOSITIONS AND METHODS FOR DIAGNOSIS AND TREATMENT OF CANCER” (The Salk Institute for Biological Studies, priority 2009, published 2010).

Molecular target: mTOR (Homo sapiens, UniProt P42345)
Assay: Western blot for mTOR autophosphorylation at S2481 in cells treated with mTOR kinase inhibitors
Type: cell-based
Conditions: actively growing Hela and MDA-MB-468 cells; 1 h at 37° C.

## CCC(=O)N1CCN(c2ccc(-n3c(=O)ccc4cnc5ccc(-c6cnc7ccccc7c6)cc5c43)cc2C(F)(F)F)CC1 [Torin1]
  mTOR autophosphorylation at S2481: abolished
